From US5489607A, “Use of enadoline in the treatment of benign prostatic enlargement” (dated 1996)

Protein sequences, listed by entry. Tags and fused reporters are not part of them. Lines headed by an entry give the natural chain unless they say otherwise; changes in a name come on top.
UniProt P41145: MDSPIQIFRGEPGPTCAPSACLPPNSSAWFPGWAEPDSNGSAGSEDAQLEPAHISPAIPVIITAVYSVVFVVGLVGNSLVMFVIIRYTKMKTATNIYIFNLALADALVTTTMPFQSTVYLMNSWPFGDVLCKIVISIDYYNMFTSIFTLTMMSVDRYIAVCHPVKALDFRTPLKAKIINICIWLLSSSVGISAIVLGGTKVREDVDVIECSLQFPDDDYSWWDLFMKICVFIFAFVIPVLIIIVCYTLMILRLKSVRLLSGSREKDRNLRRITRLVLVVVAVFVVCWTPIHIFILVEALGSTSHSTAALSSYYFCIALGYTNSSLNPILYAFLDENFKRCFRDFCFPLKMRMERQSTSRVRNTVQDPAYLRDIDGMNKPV

How the values were obtained:
kappa opioid = kappa opioid (Homo sapiens, UniProt P41145); experiment: kappa opioid affinity
prostate [1] = experiment: prostate weights and microscopy after oral administration for 4 weeks; conditions: for Prostate Wt (g) / Prostate Wt (g)/100 (g) Body Wt / Prostate Wt (g)/Brain Wt (g): oral, male Beagle dogs, mean + standard error, N=3
rat = rat paw pressure test for analgesia; conditions: iv
prostate [2] = experiment: prostate weights and microscopy after continuous intravenous infusion for 4 weeks; conditions: for Prostate Wt (g) / Prostate Wt (g)/100 (g) Body Wt / Prostate Wt (g)/Brain Wt (g): continuous intravenous infusion, male Beagle dogs, mean + standard error, N=3

For `CN(C(=O)Cc1cccc2occc12)[C@H]1CC[C@@]2(CCCO2)C[C@@H]1N1CCCC1`, the cytotoxicity (cytotoxicity (statement)) was “not cytotoxic”, the pKi (kappa opioid; kappa opioid affinity) was 9.14 and the μ/kappa ratio (kappa opioid; selectivity) was 798. The “Prostate Wt (g)” value (prostate [1]; 50 μg/kg) was 4.5 + 0.20 g, the “Prostate Wt (g)/100 (g) Body Wt” value (prostate [1]; 50 μg/kg) was 0.037 + 0.0003 g/100 g and the “Prostate Wt (g)/Brain Wt (g)” value (prostate [1]; 50 μg/kg) was 0.061 + 0.0029 g/g. The “Prostate Wt (g)” value (prostate [1]; 200 μg/kg) was 3.7 + 0.68 g, the “Prostate Wt (g)/100 (g) Body Wt” value (prostate [1]; 200 μg/kg) was 0.029 + 0.0038 g/100 g and the “Prostate Wt (g)/Brain Wt (g)” value (prostate [1]; 200 μg/kg) was 0.048 + 0.0111 g/g. The “Prostate Wt (g)” value (prostate [1]; 600 μg/kg) was 4.6 + 0.57 g, the “Prostate Wt (g)/100 (g) Body Wt” value (prostate [1]; 600 μg/kg) was 0.041 + 0.0049 g/100 g and the “Prostate Wt (g)/Brain Wt (g)” value (prostate [1]; 600 μg/kg) was 0.058 + 0.0065 g/g. For the same compound, the “prostatic atrophy, microscopic evaluation” value (prostate [1]; oral, 50, 200 or 600 μg/kg/day, dogs, confirmed by blinded histologic review) was “Prostatic atrophy was noted microscopically in all dogs”, the MPE50 (rat) was 0.030 and the “Prostate Wt (g)” value (prostate [2]; 1 μg/kg/hr) was 6.0 + 0.80 g. For the same compound, the “Prostate Wt (g)/100 (g) Body Wt” value (prostate [2]; 1 μg/kg/hr) was 0.054 + 0.0071 g/100 g, the “Prostate Wt (g)/Brain Wt (g)” value (prostate [2]; 1 μg/kg/hr) was 0.076 + 0.0125 g/g and the “Prostate Wt (g)” value (prostate [2]; 35 μg/kg/hr) was 6.2 + 1.55 g. For the same compound, the “Prostate Wt (g)/100 (g) Body Wt” value (prostate [2]; 35 μg/kg/hr) was 0.055 + 0.0116 g/100 g, the “Prostate Wt (g)/Brain Wt (g)” value (prostate [2]; 35 μg/kg/hr) was 0.074 + 0.0179 g/g and the “Prostate Wt (g)” value (prostate [2]; 5 mg/kg/hr) was 5.2 + 0.48 g. The “Prostate Wt (g)/100 (g) Body Wt” value (prostate [2]; 5 mg/kg/hr) was 0.046 + 0.0035 g/100 g, the “Prostate Wt (g)/Brain Wt (g)” value (prostate [2]; 5 mg/kg/hr) was 0.071 + 0.0090 g/g and the “prostatic atrophy, blinded histologic review” value (prostate [2]; continuous intravenous infusion, 1, 5 or 35 μg/kg/hour, dogs) was “prostatic atrophy in all dogs”.

pKi: −log10 of the molar value.
